Measurements as given in ChEMBL document CHEMBL1128191, “1-(1-[4-[(N-acetyl-4-piperidinyl)oxy]-2-methoxybenzoyl]piperidin-4-yl)-4H-3,1-benzoxazin-2(1H)-one (L-371,257): a new, orally bioavailable, non-peptide oxytocin antagonist” (J Med Chem, 1995).

Target: T1, Oxytocin receptor (Rattus norvegicus, UniProt P70536)
T1 sequence (P70536 whole entry): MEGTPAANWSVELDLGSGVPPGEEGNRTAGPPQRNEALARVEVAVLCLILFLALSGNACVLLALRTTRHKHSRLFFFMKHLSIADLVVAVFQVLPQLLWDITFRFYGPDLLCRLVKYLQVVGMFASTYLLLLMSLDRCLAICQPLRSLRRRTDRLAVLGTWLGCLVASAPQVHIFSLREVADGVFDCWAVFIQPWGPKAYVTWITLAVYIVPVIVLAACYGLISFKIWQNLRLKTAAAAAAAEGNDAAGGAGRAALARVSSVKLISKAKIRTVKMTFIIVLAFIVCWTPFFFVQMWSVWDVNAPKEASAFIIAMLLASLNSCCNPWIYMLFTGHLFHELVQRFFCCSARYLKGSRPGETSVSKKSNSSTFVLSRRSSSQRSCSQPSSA
Assay: Binding affinity was evaluated by measuring the displacement of [3H]-OT (oxytocin) from specific binding sites in uterine tissue obtained from rats

Structure (SMILES) | Ki [nM]
CC(=O)N1CCCCC1CCOc1ccc(C(=O)N2CCC(N3C(=O)OCc4ccccc43)CC2)cc1 (configuration not stated) | 130
COc1cc(OC2CCN(C(C)=O)CC2)ccc1C(=O)N1CCC(N2C(=O)OCc3ccccc32)CC1 | 19
